Reference: the SangsterLogP compilation

| logP | SMILES |
| --- | --- |
| 1.2 | O=C(OCC(=O)N1CCC1)c1ccccc1 |
| 1.44 | O=C(OCC(=O)N1CCCC1)c1ccccc1 |
| 2.3 | O=C(OCC(=O)N1CCCCCC1)c1ccccc1 |
| 1.27 | CCN(C)C(=O)COC(=O)c1ccccc1 |
| 2.9 | CC1CCCC(C)N1C(=O)COC(=O)c1ccccc1 (stereo unspecified) |
| 3.8 | CC(C)CN(CC(C)C)C(=O)COC(=O)c1ccccc1 |
